The assay concerns the target ERα (Homo sapiens, UniProt P03372). Description: Transcriptional reporter gene assay (estrogen response element-GFP) in MCF7 cells. Format: cell-based. The following applies: ERE-controlled green fluorescent protein, reduction in fluorescence.

Sequences of proteins named here, by UniProt entry; tags and fusion partners are left off.
UniProt P03372, whole entry: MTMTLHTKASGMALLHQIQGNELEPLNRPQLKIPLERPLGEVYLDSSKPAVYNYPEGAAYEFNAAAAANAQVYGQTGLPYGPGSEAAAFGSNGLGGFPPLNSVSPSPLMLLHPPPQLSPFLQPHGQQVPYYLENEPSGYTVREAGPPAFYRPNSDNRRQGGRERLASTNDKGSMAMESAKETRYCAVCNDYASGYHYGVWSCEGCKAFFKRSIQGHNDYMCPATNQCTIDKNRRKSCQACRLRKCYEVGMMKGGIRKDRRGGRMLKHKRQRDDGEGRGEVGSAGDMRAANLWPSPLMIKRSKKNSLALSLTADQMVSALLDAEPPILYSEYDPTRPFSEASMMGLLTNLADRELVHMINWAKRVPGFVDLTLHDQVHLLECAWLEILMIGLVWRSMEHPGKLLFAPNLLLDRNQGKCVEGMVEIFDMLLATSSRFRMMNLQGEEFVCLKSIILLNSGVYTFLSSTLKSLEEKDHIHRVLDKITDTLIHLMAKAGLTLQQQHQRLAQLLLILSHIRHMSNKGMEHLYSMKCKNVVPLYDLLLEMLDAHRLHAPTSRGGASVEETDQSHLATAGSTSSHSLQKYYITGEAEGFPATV

As for `C[C@H]1CCCN1CCOc1ccc(C2c3ccc(O)cc3CC3(CC3)N2C(=O)c2ccccc2)cc1` (some centres unmarked), the IC50 worked out at 73.7 nM.

In turn, `C[C@@H]1CCCN1CCOc1ccc(C2c3ccc(O)cc3CC3(CC3)N2C(=O)c2ccccc2)cc1` (some centres unmarked) gave a 50% inhibitory concentration (IC50) of 13.5 nM.

The record behind these values is patent US20240150294A1, “ESTROGEN RECEPTOR ALPHA ANTAGONISTS AND USES THEREOF” (The University of Chicago, priority 2021, published 2024).
